# Earlier results as cited in publication PMC8691714 (Cancer Research Communications, 2021).
# Read-outs that look alike come from different tables or passages of the source.
# Details: cited from earlier work
smiles,measurement,setting,value
C=CC(=O)N1CCC[C@@H](n2nc(-c3ccc(Oc4ccccc4)cc3)c3c(N)ncnc32)C1 [Ibrutinib],interindividual pharmacokinetic variability,"healthy volunteers, ibrutinib with itraconazole, ref [8]",55%
same,interindividual pharmacokinetic variability,"healthy volunteers, ibrutinib without itraconazole, ref [8]",104%
same,interindividual pharmacokinetic variability,"ibrutinib combined with ketoconazole, ref [7]",20%
same,interindividual pharmacokinetic variability,"ibrutinib without ketoconazole, ref [7]",40%
